For test [1], the target named is Hsp90 N-terminal domain (Hsp90N, residues 1–235 of human Hsp90α) (Homo sapiens, UniProt P07900). Put plainly: 2D [1H,15N] HSQC NMR titration with line-shape analysis (TITAN) for Kd. It is filed as binding. Particulars: for pKd: 2D NMR line-shape analysis, 25 °C, pH 7.0; for LE (ligand efficiency): calculated as −1.37 × (Log10Kd)/HA.
The target in a further test is Hsp90N (Homo sapiens, UniProt P07900). Briefly: Differential scanning fluorimetry (DSF), change of Tm. It is filed as binding. Particulars: apo Tm 44.4 °C, Hsp90N 2 μM, inhibitor 200 μM.
The next test relates to MCF7 cells. Briefly: Cell growth inhibition, MTT assay. Particulars: MCF7, 10 nM to 10 μM, 48 h. It counts as cell-based. A general note: Tetrazolium dyes change colour on reduction, which living cells bring about.

Chains of the proteins cited; added tags and fusions are not shown. Residues count along the entry.
UniProt P07900, 1-235 limits assumed: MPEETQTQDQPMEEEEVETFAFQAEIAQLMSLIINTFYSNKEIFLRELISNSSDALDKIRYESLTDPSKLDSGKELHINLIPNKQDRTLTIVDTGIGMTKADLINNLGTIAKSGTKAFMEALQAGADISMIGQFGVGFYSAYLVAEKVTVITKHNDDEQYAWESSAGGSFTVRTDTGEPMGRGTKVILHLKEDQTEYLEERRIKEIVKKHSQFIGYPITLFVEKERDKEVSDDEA

Molecules are shown by their SMILES. pKd: −log10 of the molar value.

The values below come from paper PMC5762686, “Structural ensemble-based docking simulation and biophysical studies discovered new inhibitors of Hsp90 N-terminal domain” (Scientific Reports, 2018).

In general, pKd refers to the negative decadic logarithm of the Kd, by convention in mol/L. Consider `NC(=O)CSc1nnc(-c2cc(Br)ccc2O)n1-c1ccccc1`, for which, in test [1], the pKd is 5.30 and the “LE (ligand efficiency)” value is reported as 0.30. Besides, the elevated Tm values on Hsp90N turned out to be 6.5 °C.
As for `Cc1[nH]nc(-c2ccc(O)cc2O)c1Oc1ccccc1F`, in test [1], the pKd is 7.00 and the “LE (ligand efficiency)” value was 0.44. The Cell growth inhibition result in the test on MCF7 cells is recorded as “significantly inhibitory”. This compound also had an elevated Tm values on Hsp90N of 8.9 °C.
Consider `COc1ccc(-c2n[nH]cc2-c2ccc(F)cc2)c(O)c1`, for which, in test [1], the pKd was 4.48 and the “LE (ligand efficiency)” value is given as 0.29. Moreover, the elevated Tm values on Hsp90N was found to be 3.5 °C.
Regarding `CCc1cc(-c2n[nH]cc2-c2nc(C)cs2)c(O)cc1OC`, in test [1], the negative-log Kd (pKd) was 6.46 and the “LE (ligand efficiency)” value is 0.40. Further, the Cell growth inhibition entry in the test with MCF7 cells was “significantly inhibitory”. The compound further gave an elevated Tm values at Hsp90N of 7.3 °C.
